Assay results published in US20040176393A1, “Statin-MMP inhibitor combinations” (priority 1998, published 2004).

Assays:
MMP-2 (Gelatinase A) = molecular target: T1, MMP-2 (Gelatinase A) (Homo sapiens, UniProt P08253); assay: thiopeptolide substrate hydrolysis assay, MMP-2; type: biochemical; conditions: inhibition of hydrolytic activity of the enzyme, read-out: IC50 MMP2
T1 sequence (P08253 110-660): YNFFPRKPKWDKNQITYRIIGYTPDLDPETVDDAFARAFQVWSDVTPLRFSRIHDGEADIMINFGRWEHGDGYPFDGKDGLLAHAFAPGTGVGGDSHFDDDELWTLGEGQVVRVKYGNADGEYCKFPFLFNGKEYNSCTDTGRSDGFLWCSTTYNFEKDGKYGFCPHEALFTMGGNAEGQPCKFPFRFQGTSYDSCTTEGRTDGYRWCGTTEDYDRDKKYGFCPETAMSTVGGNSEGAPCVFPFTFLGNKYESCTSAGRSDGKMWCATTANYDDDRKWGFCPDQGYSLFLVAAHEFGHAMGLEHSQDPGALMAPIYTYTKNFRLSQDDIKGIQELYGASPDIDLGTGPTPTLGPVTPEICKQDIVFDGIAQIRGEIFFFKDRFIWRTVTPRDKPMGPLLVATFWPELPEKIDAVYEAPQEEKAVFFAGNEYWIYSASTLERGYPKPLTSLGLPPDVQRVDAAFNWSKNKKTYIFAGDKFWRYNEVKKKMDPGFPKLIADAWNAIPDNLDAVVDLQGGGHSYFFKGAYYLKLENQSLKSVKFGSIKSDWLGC

[1] = molecular target: T2, MMP-1 (interstitial collagenase) (Homo sapiens, UniProt P03956); assay: thiopeptolide substrate hydrolysis assay, MMP-1; type: biochemical; conditions: inhibition of hydrolytic activity of the enzyme, read-out: IC50 MMP1
T2 sequence (P03956 100-469): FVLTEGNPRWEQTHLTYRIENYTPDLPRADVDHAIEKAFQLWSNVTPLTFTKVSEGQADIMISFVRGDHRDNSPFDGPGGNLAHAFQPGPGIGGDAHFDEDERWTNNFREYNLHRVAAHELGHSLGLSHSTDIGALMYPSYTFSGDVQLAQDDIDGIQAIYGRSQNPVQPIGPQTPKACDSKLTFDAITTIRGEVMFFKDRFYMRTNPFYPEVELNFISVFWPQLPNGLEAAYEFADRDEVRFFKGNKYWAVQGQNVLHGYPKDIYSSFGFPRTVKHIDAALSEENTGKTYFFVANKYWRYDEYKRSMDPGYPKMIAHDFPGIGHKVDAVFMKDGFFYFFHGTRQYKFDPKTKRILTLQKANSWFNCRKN

Row | Structure (SMILES) | IC50 (MMP-2 (Gelatinase A)) [nM] | IC50 [1] [nM]
1 | CC(C)[C@H](NS(=O)(=O)c1ccc(-c2ccc(N)cc2)cc1)C(=O)O [(S)-2-(4′-Amino-biphenyl-4-sulfonylamino)-3-methyl-butyric acid] | 44 | 
2 | CC(C)[C@H](NS(=O)(=O)c1ccc(-c2ccc(Br)cc2)cc1)C(=O)O [(S)-2-(4′-Bromo-biphenyl-4-sulfonylamino)-3-methyl-butyric acid] | 25 | 
3 | CC(C)[C@H](NS(=O)(=O)c1ccc(-c2ccc([N+](=O)[O-])cc2)cc1)C(=O)O [(S)-3-Methyl-2-(4′-nitro-biphenyl-4-sulfonylamino)-butyric acid] | 13 | 
4 | COc1ccc(S(=O)(=O)N(Cc2cccnc2)[C@@H](C(=O)NO)C(C)C)cc1 [CGS 27023A] |  | 33
